The assay concerns the target Cathepsin S (Homo sapiens, UniProt P25774). Nature of the assay: Cathepsin S inhibition assay (fluorogenic peptide substrate). The assay is classed as biochemical. The settings on record: Table II, compounds of Formula I; read-out: Ki Cat. S. The method, then:
“Inhibition constant”, Ki, is the dissociation constant of the enzyme-inhibitor complex, or the reciprocal of the binding affinity of the inhibitor to the enzyme. […] The inhibited rates are then fit by nonlinear regression to the following equation: […]
The assumption being made for the classical inhibition described above is that the free inhibitor concentration is equal to the total inhibitor concentration.
Kinetic measurements are performed in a total reaction volume of 30 μl in 384-well microtiter plates. […] Control reactions in the absence of inhibitor are performed in replicates of 24. The reactions are initiated by adding the substrate, acetyl-histidine-proline-valine-lysine-amino carbamoyl coumarin, to a final concentration of 50 μM. The rate of substrate hydrolysis is measured by monitoring the increase in fluorescence at an excitation wavelength of 380 nm and an emission wavelength of 450 nm that results from cleavage of the aniline bond in the substrate by the enzyme.

By UniProt entry, the sequences of proteins in these tests, tags left out. Residues count along the entry.
UniProt P25774, 115-331, species assumed: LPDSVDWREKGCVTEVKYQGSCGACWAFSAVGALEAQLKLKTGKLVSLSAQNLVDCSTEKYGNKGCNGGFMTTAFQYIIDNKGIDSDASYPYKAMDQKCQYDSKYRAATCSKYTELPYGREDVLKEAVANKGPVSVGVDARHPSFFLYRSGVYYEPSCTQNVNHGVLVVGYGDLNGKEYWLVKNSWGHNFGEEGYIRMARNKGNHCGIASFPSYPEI

1 substance from patent US7109243B2 (IRM LLC, priority 2003, dated 2006) can be followed below.

The Ki is a measure of affinity in units of concentration, obtained from inhibition or displacement.

Turning to “(S)-3-Bromo-N-{1-[2-(4-methoxy-phenylamino)-ethylcarbamoyl]-2-phenyl-ethyl}-4-methyl-benzamide [Compound 24]”, the Ki was less than 100 nM.
